HDAC3 inh – human HDAC3 inhibition | O15379 | recombinant HDAC3, fluorogenic peptide/trypsin coupled, fluorescence | inhibition, % at 8.3 µM | 320,000 tested, 0.15% active | AID 2718; in the data active = inhibition above about 26%, passing the limit was not always enough
NALP1 yeast inh – NALP1 inhibition; S. cerevisiae NALP1/ASC/caspase-1 growth, X-gal OD620, 72 h; inhibition, % at 10 µM; 280,000 tested, 0.61% active; AID 2071; in the data active = inhibition mostly above about 24%, no sharp cut-off; inactive = mostly below about 32%
Yeast UUG start – alters start codon recognition fidelity in yeast; AID 602363; activity score, % at 18.7 µM; 350,000 tested, 0.13% active; S. cerevisiae UUG-firefly luciferase reporter, luminescence/redox ratio;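 active means replicate mean at a twofold rise or more, about +100% in these data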;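 further: firefly luciferase made from a UUG start codon reports start codon fidelity; reporter light over untreated wells divided by growth signal over untreated wells; some hits fall short of that in this replicate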
MC4R barr agon – human MC4R agonism via beta-arrestin | U2OS MC4R beta-arrestin complementation, luminescence; percent of melanotan II response, DMSO zero | activation, % at 8.9 µM | 360,000 tested, 0.98% active | AID 540308;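 active = activation above a per-plate cutoff, the mean activation of sample wells on that plate plus 3 SD, cut at about 8% in these data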
ALR H2O2 inh – inhibitors of human sulfhydryl oxidase ALR. P55789. purified ALR, DTT oxidation, H2O2 HRP-luminol luminescence. inhibition, % (no concentration beside the values). hit rate 3.8% among 290,000;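 active means mean and each replicate at 75% or more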;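 further: stock transfer was 7.5 nL into about 7.5 µL; 0% = neutral wells and 100% = wells with inactivated enzyme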
MC4R antagonist – human MC4R antagonism in cAMP assay; P32245; MC4R-expressing cells, MTII-stimulated cAMP, LANCE TR-FRET; inhibition, % at 6.5 µM; 360,000 tested, 0.48% active;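 active = inhibition above its plate's cutoff, the mean of tested wells on that plate plus 3 SD, cut at about 29% in these data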;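 also: 0% = Melanotan II alone and 100% = Melanotan II plus saturating MCL0020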
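System: U2OS cells stably expressing human melanocortin 4 receptor (MC4R). Reagent: Melanotan II challenge after compound preincubation. Doses: 6.5 µM. Times: 30-min compound, 1-h challenge, 1-h detection, room temperature. Measured by: TR-FRET with Eu-cAMP and labeled anti-cAMP, 671 nm. Replicates: singlicate.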
* = called active by the depositor. A selection: hits, their analogues and other compounds. The true share with any hit is near 4.2%.

`COc1ccc(CCNC(=O)CS(=O)Cc2nc(-c3ccc(C)cc3)oc2C)cc1OC` (stereo unspecified) gave HDAC3 inh 0, NALP1 yeast inh 20, Yeast UUG start 0, MC4R barr agon -5, ALR H2O2 inh 99* and MC4R antagonist 5.
Screening COc1ccc(CCNC(=O)C2CCN(Cc3nc(-c4ccc(Cl)cc4)oc3C)CC2)cc1OC returned Yeast UUG start -15, MC4R barr agon -1 and MC4R antagonist 3.
Screening COc1ccc(-c2nc(CS(=O)CC(=O)NCCc3ccc(OC)c(OC)c3)c(C)o2)cc1 (stereo unspecified) returned HDAC3 inh -13, NALP1 yeast inh 24, MC4R barr agon 3, ALR H2O2 inh 98* and MC4R antagonist 0.
CCOc1ccc(CCNC(=O)CS(=O)Cc2nc(-c3ccc(OC)cc3)oc2C)cc1OCC (stereo unspecified) was read as HDAC3 inh 1, NALP1 yeast inh 1, Yeast UUG start 7, MC4R barr agon -2, ALR H2O2 inh 99* and MC4R antagonist 4.
`O=C(C[C@@H]1C=C[C@@H](NC(=O)NC2CCCCC2)[C@@H](CO)O1)NCc1ccccc1` gave Yeast UUG start -12.
`C[C@@H]1CN([C@@H](C)CO)C(=O)c2cc(Br)cnc2O[C@H]1CN(C)CC1CCCC1` gave Yeast UUG start -7.
CO/N=C/NC(=O)c1ccc([N+](=O)[O-])c(CS(=O)(=O)c2ccc(Cl)cc2)c1 was read as HDAC3 inh -3, NALP1 yeast inh 3, Yeast UUG start -38, MC4R barr agon 1, ALR H2O2 inh 100* and MC4R antagonist 11.
`COc1cccc2cc(C(=O)NCc3ccc(Cl)cc3)c(=O)oc12` gave HDAC3 inh 7, NALP1 yeast inh 37*, Yeast UUG start -14, MC4R barr agon 0, ALR H2O2 inh -2 and MC4R antagonist 0.
`COc1cccc2cc(C(=O)NCc3ccc(Cl)cc3)c(=N)oc12` gave HDAC3 inh -5, NALP1 yeast inh 25, Yeast UUG start -7, MC4R barr agon -4, ALR H2O2 inh -4 and MC4R antagonist 8.
N#Cc1ccccc1NC(=O)COC(=O)c1cccs1 was read as HDAC3 inh -3, Yeast UUG start -13, MC4R barr agon -2 and MC4R antagonist -4.
For N#Cc1ccccc1NC(=S)NC(=O)c1cccs1 the results were HDAC3 inh -6, NALP1 yeast inh -22, Yeast UUG start -15, MC4R barr agon -4, ALR H2O2 inh 98* and MC4R antagonist 12.
`COc1cccc(/C=C2/SC(=O)N(CC(=O)N3CCc4ccccc4C3)C2=O)c1OCC(=O)O` gave HDAC3 inh 4, NALP1 yeast inh -4, Yeast UUG start -19, MC4R barr agon -1, ALR H2O2 inh 98* and MC4R antagonist 8.
For COc1cccc(/C=C2/SC(=O)N(C)C2=O)c1OCc1ccc(C(=O)O)cc1 the results were HDAC3 inh 3, NALP1 yeast inh 11, MC4R barr agon 0, ALR H2O2 inh 1 and MC4R antagonist 9.
Screening CC(=O)c1cccc(Oc2cc(NN3CCCCC3)c([N+](=O)[O-])cc2[N+](=O)[O-])c1 returned HDAC3 inh 15, NALP1 yeast inh 16, Yeast UUG start -15, MC4R barr agon -2, ALR H2O2 inh 93* and MC4R antagonist 5.
`O=[N+]([O-])c1cc([N+](=O)[O-])c(Oc2c(F)ccc(F)c2F)cc1NN1CCCCC1` gave HDAC3 inh -1, NALP1 yeast inh 5, Yeast UUG start 22, MC4R barr agon -1, ALR H2O2 inh 96* and MC4R antagonist 2.
`CC(=O)c1ccccc1Oc1cc(NN2CCCCC2)c([N+](=O)[O-])cc1[N+](=O)[O-]` gave HDAC3 inh 5, NALP1 yeast inh 6, Yeast UUG start 8, MC4R barr agon -2 and MC4R antagonist 1.
Screening COc1ccc(S(=O)(=O)Nc2ccc3c(c2)CC(=O)N([C@H](C)CO)C[C@@H](C)[C@H](CN(C)C(=O)Nc2cccc4ccccc24)O3)cc1 returned Yeast UUG start -4.
For C/C=C/c1ccc([C@H]2[C@@H](CNS(C)(=O)=O)N(CC3CCCC3)[C@H]2CO)cc1 the results were Yeast UUG start 2.
NC(=S)NNc1cccc(Cl)c1 was read as HDAC3 inh -5, NALP1 yeast inh -2, Yeast UUG start -53, MC4R barr agon -1, ALR H2O2 inh 98* and MC4R antagonist -6.
Screening Oc1c(Br)cc(Br)cc1C=Nc1cccnc1 returned HDAC3 inh -1, NALP1 yeast inh 45*, Yeast UUG start -18, MC4R barr agon -1 and MC4R antagonist 12.
`O=C(NCC[C@H]1CC[C@@H](NC(=O)c2cnccn2)[C@@H](CO)O1)c1ccc2c(c1)OCO2` gave Yeast UUG start -16.
For CC(=O)OCC1=C(C(=O)O)N2C(=O)[C@@H](NC(=O)Cc3cccs3)[C@H]2SC1 the results were HDAC3 inh 7, NALP1 yeast inh 136*, Yeast UUG start -19, MC4R barr agon -2, ALR H2O2 inh -12 and MC4R antagonist 5.
`CC(=O)OCC1=C(C(=O)O)N2C(=O)[C@@H](NC(=O)Cc3ccccc3)[C@H]2SC1` gave Yeast UUG start 6, MC4R barr agon -1 and MC4R antagonist 10.
For CC(=O)OCC1=C(C(=O)O)N2C(=O)C(NC(=O)c3ccc(COc4c(C)cccc4Cl)o3)C2SC1 (stereo unspecified) the results were HDAC3 inh -7, NALP1 yeast inh 21, Yeast UUG start -10, MC4R barr agon 0, ALR H2O2 inh 98* and MC4R antagonist 3.

Of the compounds above, two contain two or more sulfur atoms.
For N#Cc1ccccc1NC(=S)NC(=O)c1cccs1 the results were HDAC3 inh -6, NALP1 yeast inh -22, Yeast UUG start -15, MC4R barr agon -4, ALR H2O2 inh 98* and MC4R antagonist 12.
For CC(=O)OCC1=C(C(=O)O)N2C(=O)[C@@H](NC(=O)Cc3cccs3)[C@H]2SC1 the results were HDAC3 inh 7, NALP1 yeast inh 136*, Yeast UUG start -19, MC4R barr agon -2, ALR H2O2 inh -12 and MC4R antagonist 5.

More compounds follow.
CC(NCCC(c1ccccc1)c1ccccc1)c1ccccc1 (stereo unspecified) was read as HDAC3 inh -8, NALP1 yeast inh 54*, Yeast UUG start -4, MC4R barr agon 5, ALR H2O2 inh -5 and MC4R antagonist 1.
Screening CC(NC1CCCC1)c1ccccc1 (stereo unspecified) returned HDAC3 inh 4, NALP1 yeast inh 6, Yeast UUG start -9, MC4R barr agon 0, ALR H2O2 inh -1 and MC4R antagonist -1.
Screening C[C@@H]1CCCCO[C@@H](CN(C)C(=O)c2ccncc2)[C@H](C)CN([C@H](C)CO)C(=O)c2cc(NS(=O)(=O)c3ccc(F)cc3)ccc2O1 returned Yeast UUG start 1.
`CC(C)NS(=O)(=O)c1ccc(OCC(=O)Nc2ccc3c(c2)OCO3)cc1` gave HDAC3 inh -1, NALP1 yeast inh -4, MC4R barr agon -3, ALR H2O2 inh -23 and MC4R antagonist -7.
`CCC(C)NS(=O)(=O)c1ccc(OCC(=O)Nc2ccc3c(c2)OCO3)cc1` (stereo unspecified) gave HDAC3 inh -4, NALP1 yeast inh 41*, Yeast UUG start -14, MC4R barr agon -2, ALR H2O2 inh -2 and MC4R antagonist 21.

3 structures already listed, arranged by length of the SMILES, highest first.
Screening COc1ccc(S(=O)(=O)Nc2ccc3c(c2)CC(=O)N([C@H](C)CO)C[C@@H](C)[C@H](CN(C)C(=O)Nc2cccc4ccccc24)O3)cc1 returned Yeast UUG start -4.
CC(NCCC(c1ccccc1)c1ccccc1)c1ccccc1 (stereo unspecified) was read as HDAC3 inh -8, NALP1 yeast inh 54*, Yeast UUG start -4, MC4R barr agon 5, ALR H2O2 inh -5 and MC4R antagonist 1.
For N#Cc1ccccc1NC(=S)NC(=O)c1cccs1 the results were HDAC3 inh -6, NALP1 yeast inh -22, Yeast UUG start -15, MC4R barr agon -4, ALR H2O2 inh 98* and MC4R antagonist 12.

From PubChem
